The values that follow are results of earlier work, collected in patent US11807624B2, “Substituted pyrimidinones as agonists of the APJ receptor” (AMGEN INC., priority 2018, dated 2023).

For this data set the following is noted: cited from earlier work.

Regarding Apelin-13, the plasma half-life was under 5 min.
